One compound from ChEMBL document CHEMBL6134796, “Development and Evaluation of Indole-Based Phospholipase D Inhibitors for Lung Cancer Immunotherapy” (J Med Chem, 2025) can be followed below.

Holding throughout (type): cell-based
Assay [1] concerns the target GTPase KRas (Homo sapiens) (UniProt P01116). The experiment in a line: Inhibition of KRAS in human A549 cells assessed as decrease in ERK phosphorylation by measuring fold change incubated for 24 hrs by immunoblot analysis. Background: In western blotting, separated proteins are transferred to a membrane and probed.
For assay [2] the target is unchanged. The experiment in a line: Inhibition of KRAS in human A549 cells assessed as decrease in KRAS-GTP level by measuring fold change incubated for 24 hrs by immunoblot analysis.
The test system of assay [3] is A549. Kind of assay: Inhibition of EGFR-KRAS mediated signalling pathway in human A549 cells assessed as reduction in EGF stimulated ERK phosphorylation by measuring fold change by immunoblot analysis.
Assay [4] has as its system A549. The experiment in a line: Inhibition of EGFR-KRAS mediated signalling pathway in human A549 cells assessed as reduction in EGF stimulated EGFR phosphorylation by measuring fold change by immunoblot analysis.

Consider `O=C(CCc1c[nH]c2ccccc12)Nc1cc(C(F)(F)F)cc(C(F)(F)F)c1`, for which the fold change (FC) in assay [1] came out at 0.2; in assay [2] it was 0.4; with A549 [3], 1.5; with A549 [4] it was 19.8.
